N-glyco inh = increase of ERlucT glycosylation luciferase signal, primary screen, N-linked glycosylation inhibitor project, D54 ERlucT cells, luminescence, set 2; reporter increase, % at 12.5 µM; D54 ERlucT glycosylation luciferase reporter, 24 h; percent of 100 nM tunicamycin response; AID 588692, 2011; 360,000 compounds, 0.23% hits;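 active = mean luciferase reporter signal, scaled so untreated is 0 and the glycosylation-blocking control 100, at or above a set limit in every replicate; inconclusive = mean reaches the limit but not every replicate does; inactive = mean below the limit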;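 note: luciferase carries N-glycosylation sites so blocking glycosylation raises the light; 0% = median of neutral control wells and 100% = median of 100 nM tunicamycin wells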
C2C12 statin = suppressors of statin myotoxicity in C2C12 myotubes, primary screen, cell-based, single point, plate reader; C2C12 myotubes + simvastatin, ATP luminescence, 48 h; scaled: DMSO 0, geranylgeraniol control 100; AID 602340, 2012; rescue of ATP level, % at 7.49 µM; 330,000 compounds, 0.78% hits;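 active = mean ATP rescue above about 67%, or every replicate alone reaching that limit, limit read from the data, passing the limit was not always enough; inconclusive = no clear call, values can overlap the other calls; inactive = mean under the limit and some replicate under it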;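 note: myotubes were challenged with 10 µM simvastatin during compound exposure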
Yeast UUG start-1 = modulators of yeast start codon fidelity, primary screen, whole organism, S. cerevisiae, single point, plate reader | AID 602363, 2012 | S. cerevisiae UUG-firefly luciferase reporter, luminescence/redox ratio | activity score, % at 18.7 µM | hit rate 0.13% among 350,000;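 active = replicate mean at a twofold rise or more, about +100% in these data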;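 also: firefly luciferase made from a UUG start codon reports start codon fidelity; reporter light over untreated wells divided by growth signal over untreated wells; some hits fall short of that in this replicate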
Cneo AK release = Cryptococcus neoformans cell lysis inducers, primary screen, AK release luminescence, single concentration; 360,000 compounds, 0.2% hits; C. neoformans lysis, adenylate kinase release luminescence, 4 h; normalised: neutral wells 0, clomiphene wells 100; lysis activity, % at 15 µM; AID 651654, 2012;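 active = mean lysis activity across replicates of at least 80%, whatever share of replicates individually reach that level; inactive = mean lysis activity below 80%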
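Material – Cryptococcus neoformans yeast cells · Quantity – 5 × 10^6 yeast cells/mL · Buffer or medium – YPD medium · Compound – single dose · Timing – 4 h static compound exposure, 37 °C, read 1 h post-reagent · Signal – adenylate kinase release luminescence · Read-out basis – lysis from increased AK signal · Benchmarks – Clomiphene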
miR-122 sensor = miR-122 Renilla sensor signal increase in Huh7, primary screen, miR-122 inhibitor project, cell-based, single point, plate reader; Huh7 miR-122 Renilla luciferase sensor, 48 h; neutral wells = 0, positive control = 100; activation (reporter increase), % at 12.5 µM; 340,000 compounds, 0.3% hits;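 active = mean replicate activation score at least 90 and every replicate individually at or above 90; inconclusive = only one of the two criteria met; inactive = neither criterion met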;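 note: higher luciferase means less miR-122 activity so hits act as miR-122 inhibitors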
Yeast UUG start-2 = enhancers of UUG start codon usage in yeast, dose response, S. cerevisiae, UUG firefly luciferase, cherry-pick, set 2; AID 652061, 2013; luminescence, 4 h; 100% means double the DMSO signal; activation, % at 38 µM; 540 tested, under 10 active; shares compounds with Yeast UUG start-1;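 active = signal increase whose fitted curve reaches an absolute level of 40 at a concentration under 10 µM; inactive = activity opposite to the expected increase, or the rest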
The depositor's hits bear a star; ? = inconclusive; . = not tested or not shown; [ ] = another dose, or the depositor's remark. A selection: hits, their analogues and other compounds. The true share with any hit is near 1.2%.

SMILES	N-glyco inh	C2C12 statin	Yeast UUG start-1	Cneo AK release	miR-122 sensor	others
CCc1ccc(N2C(=O)NC(=O)/C(=C\C=C\c3ccco3)C2=O)cc1	46*	21	-13	-6	-1
O=C1NC(=O)N(Cc2ccc(F)cc2)C(=O)/C1=C\C=C\c1ccco1	?	.	-11	2	-1
Cc1cc(C)cc(N2C(=O)NC(=O)/C(=C\C=C\c3ccco3)C2=O)c1	56*	0	.	.	-3
O=c1c2ccccc2nc(/C=C/c2ccc([N+](=O)[O-])o2)n1-c1ccc(O)cc1	-18	.	.	.	95*
CC=Cc1ccc2n(c1=O)C[C@@H]1[C@@H](CO)[C@H](C(=O)OC)[C@H]2N1CC1CCCCC1 (mixture of isomers)	.	-2	.	3	-3[16.7 µM]
CC#CP(=O)(OC)C(O)(CF)c1ccccc1 (stereo not drawn)	2	105*	-10	-2	-2
CC#CP(=O)(OCC)C(O)(c1ccccc1)C(F)(F)F (stereo not drawn)	0	3	-4	-1	-9
CCCCOC(=O)C1=C(N)OC2=C(C(=O)CCC2)[C@]12C(=O)Nc1ccccc12	0	8	125*	-3	6	Yeast UUG start-2=0
O=C(Nc1ccccc1F)OC1CN2CCC1CC2 (stereo not drawn)	-4	.	165*	-2	1	Yeast UUG start-2=2
O=C(Nc1ccccc1Cl)OC1CN2CCC1CC2 (stereo not drawn)	-4	2	.	.	.
COC(=O)[C@H]1[C@H](CO)[C@H]2Cn3c(ccc(-c4cccc(OC)c4)c3=O)[C@@H]1N2C(=O)c1ccccc1F	.	17	.	1	1[16.7 µM]

In the list so far, 2 have a carbonyl joined to an NH by a bond outside any ring:
SMILES	N-glyco inh	C2C12 statin	Yeast UUG start-1	Cneo AK release	miR-122 sensor	others
O=C(Nc1ccccc1F)OC1CN2CCC1CC2 (stereo not drawn)	-4	.	165*	-2	1	Yeast UUG start-2=2
O=C(Nc1ccccc1Cl)OC1CN2CCC1CC2 (stereo not drawn)	-4	2	.	.	.

Bioassay records: PubChem BioAssay, Broad Institute
